Test results as given in ChEMBL document CHEMBL1800036, “A novel HDAC inhibitor with a hydroxy-pyrimidine scaffold” (Bioorg Med Chem Lett, 2011).
pIC50: −log10 of the molar value.

The chains behind the UniProt entries cited, without tags or fusion partners. Where a name states a change or a piece, a line headed by the entry shows the natural chain unless it says otherwise.
UniProt Q13547, whole entry: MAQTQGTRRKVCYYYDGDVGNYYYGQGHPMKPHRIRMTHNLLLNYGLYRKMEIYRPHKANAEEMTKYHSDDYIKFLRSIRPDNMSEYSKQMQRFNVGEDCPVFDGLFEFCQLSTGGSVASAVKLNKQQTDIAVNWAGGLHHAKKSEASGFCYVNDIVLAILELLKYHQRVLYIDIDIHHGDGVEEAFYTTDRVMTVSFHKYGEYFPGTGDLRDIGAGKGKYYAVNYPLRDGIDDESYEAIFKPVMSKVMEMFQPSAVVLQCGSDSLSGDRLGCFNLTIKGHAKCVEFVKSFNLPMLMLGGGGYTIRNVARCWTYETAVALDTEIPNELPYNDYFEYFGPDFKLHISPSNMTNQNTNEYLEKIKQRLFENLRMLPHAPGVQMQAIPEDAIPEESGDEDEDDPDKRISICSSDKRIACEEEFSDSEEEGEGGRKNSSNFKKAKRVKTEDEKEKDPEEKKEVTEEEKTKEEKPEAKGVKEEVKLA
UniProt Q92769, whole entry: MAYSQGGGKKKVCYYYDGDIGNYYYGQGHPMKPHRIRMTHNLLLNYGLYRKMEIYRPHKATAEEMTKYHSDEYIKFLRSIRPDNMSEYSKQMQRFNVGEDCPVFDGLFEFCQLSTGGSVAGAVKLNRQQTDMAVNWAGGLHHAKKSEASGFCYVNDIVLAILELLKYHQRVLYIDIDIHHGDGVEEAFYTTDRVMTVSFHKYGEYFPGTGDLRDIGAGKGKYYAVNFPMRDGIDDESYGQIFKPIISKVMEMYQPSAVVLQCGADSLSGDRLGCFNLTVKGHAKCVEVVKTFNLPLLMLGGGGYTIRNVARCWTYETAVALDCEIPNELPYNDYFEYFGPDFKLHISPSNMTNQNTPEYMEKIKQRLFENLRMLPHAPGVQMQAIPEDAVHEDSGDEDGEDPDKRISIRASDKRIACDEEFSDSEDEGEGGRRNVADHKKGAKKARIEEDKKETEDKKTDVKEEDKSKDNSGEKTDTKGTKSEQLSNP
UniProt O15379: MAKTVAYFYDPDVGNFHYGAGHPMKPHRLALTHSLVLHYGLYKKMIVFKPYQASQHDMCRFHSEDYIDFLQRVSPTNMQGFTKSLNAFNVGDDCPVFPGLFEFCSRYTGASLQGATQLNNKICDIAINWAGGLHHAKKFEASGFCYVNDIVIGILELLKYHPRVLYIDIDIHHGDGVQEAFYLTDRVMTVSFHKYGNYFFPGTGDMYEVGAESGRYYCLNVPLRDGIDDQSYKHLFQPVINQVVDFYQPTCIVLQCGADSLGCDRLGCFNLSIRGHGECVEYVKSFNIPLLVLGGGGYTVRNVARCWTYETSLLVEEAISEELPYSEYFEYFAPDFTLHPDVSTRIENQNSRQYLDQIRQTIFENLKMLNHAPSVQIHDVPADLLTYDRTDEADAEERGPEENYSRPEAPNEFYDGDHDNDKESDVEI
UniProt P56524: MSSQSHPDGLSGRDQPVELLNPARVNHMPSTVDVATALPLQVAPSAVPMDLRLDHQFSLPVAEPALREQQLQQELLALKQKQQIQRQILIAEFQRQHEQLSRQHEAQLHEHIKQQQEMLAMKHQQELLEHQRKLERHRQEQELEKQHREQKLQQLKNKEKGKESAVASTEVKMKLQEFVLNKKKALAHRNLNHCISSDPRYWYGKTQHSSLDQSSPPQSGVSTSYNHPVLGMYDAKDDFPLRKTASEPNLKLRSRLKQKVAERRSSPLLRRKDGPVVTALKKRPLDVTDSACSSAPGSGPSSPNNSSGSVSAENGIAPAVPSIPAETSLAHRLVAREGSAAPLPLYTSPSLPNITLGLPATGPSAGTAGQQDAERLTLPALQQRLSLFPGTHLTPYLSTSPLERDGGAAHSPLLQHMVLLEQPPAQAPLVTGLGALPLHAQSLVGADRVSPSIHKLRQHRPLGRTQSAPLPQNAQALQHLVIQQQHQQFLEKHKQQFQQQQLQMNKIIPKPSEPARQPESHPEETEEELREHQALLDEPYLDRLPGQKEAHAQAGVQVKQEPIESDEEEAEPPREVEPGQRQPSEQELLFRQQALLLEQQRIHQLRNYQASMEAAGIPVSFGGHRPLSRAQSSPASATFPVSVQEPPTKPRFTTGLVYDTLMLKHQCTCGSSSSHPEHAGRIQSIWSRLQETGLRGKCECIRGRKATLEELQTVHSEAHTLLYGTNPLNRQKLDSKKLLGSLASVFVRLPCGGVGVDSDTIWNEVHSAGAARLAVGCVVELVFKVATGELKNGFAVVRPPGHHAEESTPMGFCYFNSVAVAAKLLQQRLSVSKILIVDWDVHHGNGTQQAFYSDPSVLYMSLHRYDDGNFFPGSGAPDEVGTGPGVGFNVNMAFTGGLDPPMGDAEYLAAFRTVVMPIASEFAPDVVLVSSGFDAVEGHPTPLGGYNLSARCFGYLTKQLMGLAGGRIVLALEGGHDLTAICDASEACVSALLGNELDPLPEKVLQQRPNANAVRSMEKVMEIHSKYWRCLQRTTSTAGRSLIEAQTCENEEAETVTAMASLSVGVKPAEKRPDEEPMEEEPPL
UniProt Q9UQL6: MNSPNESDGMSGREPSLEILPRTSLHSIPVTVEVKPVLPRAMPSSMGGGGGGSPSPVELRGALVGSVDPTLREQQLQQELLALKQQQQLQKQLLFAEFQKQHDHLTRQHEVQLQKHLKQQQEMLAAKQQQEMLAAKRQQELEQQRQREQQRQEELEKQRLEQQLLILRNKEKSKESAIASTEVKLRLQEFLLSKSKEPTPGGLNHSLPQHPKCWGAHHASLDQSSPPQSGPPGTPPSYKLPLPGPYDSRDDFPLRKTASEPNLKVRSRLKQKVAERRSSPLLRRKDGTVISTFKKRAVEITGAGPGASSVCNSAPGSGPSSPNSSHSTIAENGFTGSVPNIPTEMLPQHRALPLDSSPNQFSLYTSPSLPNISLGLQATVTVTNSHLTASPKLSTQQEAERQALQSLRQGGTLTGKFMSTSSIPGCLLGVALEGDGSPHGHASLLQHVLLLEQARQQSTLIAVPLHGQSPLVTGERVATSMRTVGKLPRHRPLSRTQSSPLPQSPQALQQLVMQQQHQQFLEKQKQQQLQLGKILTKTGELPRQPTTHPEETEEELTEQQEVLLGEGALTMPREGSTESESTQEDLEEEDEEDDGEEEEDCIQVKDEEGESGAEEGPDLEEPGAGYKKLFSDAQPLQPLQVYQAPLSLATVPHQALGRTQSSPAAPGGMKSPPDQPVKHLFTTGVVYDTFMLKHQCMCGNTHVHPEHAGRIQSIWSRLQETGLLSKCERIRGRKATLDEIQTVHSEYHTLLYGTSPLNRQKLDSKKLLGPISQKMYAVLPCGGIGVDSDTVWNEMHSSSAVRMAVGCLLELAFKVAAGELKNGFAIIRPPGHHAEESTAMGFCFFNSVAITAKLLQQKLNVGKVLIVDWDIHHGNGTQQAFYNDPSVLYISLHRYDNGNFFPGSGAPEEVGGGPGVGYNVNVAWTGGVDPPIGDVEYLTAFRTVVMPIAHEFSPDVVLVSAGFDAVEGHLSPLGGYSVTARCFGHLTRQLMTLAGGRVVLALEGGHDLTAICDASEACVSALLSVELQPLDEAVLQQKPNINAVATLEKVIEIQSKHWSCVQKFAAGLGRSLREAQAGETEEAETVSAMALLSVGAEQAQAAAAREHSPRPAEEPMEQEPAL
UniProt Q9UKV0: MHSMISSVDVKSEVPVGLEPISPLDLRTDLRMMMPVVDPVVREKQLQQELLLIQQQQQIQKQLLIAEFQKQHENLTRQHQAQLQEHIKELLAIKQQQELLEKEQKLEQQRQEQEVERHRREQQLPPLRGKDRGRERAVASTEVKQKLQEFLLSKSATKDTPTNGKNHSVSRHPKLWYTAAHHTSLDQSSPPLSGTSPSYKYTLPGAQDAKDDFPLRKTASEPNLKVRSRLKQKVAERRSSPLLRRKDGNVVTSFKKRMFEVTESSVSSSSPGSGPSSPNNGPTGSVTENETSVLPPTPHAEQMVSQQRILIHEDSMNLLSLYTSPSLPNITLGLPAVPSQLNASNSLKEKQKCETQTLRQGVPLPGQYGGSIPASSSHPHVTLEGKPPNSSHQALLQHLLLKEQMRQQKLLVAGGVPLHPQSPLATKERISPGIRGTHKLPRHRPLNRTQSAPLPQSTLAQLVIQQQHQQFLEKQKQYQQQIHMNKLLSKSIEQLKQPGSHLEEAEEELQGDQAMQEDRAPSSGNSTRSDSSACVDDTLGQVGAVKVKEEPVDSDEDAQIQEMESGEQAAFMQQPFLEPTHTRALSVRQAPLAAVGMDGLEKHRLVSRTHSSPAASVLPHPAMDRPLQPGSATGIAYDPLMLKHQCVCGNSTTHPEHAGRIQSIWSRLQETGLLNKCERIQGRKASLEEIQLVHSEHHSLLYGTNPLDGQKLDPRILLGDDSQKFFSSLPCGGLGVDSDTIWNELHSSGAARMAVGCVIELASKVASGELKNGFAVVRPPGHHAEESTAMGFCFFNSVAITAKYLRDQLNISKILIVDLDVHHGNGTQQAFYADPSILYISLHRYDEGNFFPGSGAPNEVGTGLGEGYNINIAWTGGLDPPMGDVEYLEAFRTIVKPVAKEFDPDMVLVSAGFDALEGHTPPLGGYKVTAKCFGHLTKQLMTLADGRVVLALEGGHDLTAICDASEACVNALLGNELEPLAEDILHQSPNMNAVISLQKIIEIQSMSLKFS

Tests used:
[1] = target: Histone deacetylase 1 (Homo sapiens, UniProt Q13547); assay: Inhibition of recombinant HDAC1 assessed as inhibition of fluorogenic aminocoumarin release from substrate by trypsin-coupled biochemical assay
In short: (§1)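 Trypsin-coupled fluorogenic assay. Substrate is an acetylated lysine tripeptide amide-linked to aminocoumarin (AMC). HDAC deacetylation allows trypsin to release AMC, and the fluorescence increase is read. Compound was tested at various concentrations and normalized to a DMSO control. IC50 was derived by non-linear regression fit.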

[2] = target: Histone deacetylase 2 (Homo sapiens, UniProt Q92769); assay: Inhibition of recombinant HDAC2 assessed as inhibition of fluorogenic aminocoumarin release from substrate by trypsin-coupled biochemical assay
[3] = target: Histone deacetylase 3 (Homo sapiens, UniProt O15379); assay: Inhibition of recombinant HDAC3 assessed as inhibition of fluorogenic aminocoumarin release from substrate by trypsin-coupled biochemical assay; in short: as §1
[4] = target: Histone deacetylase 4 (Homo sapiens, UniProt P56524); assay: Inhibition of recombinant HDAC4 assessed as inhibition of fluorogenic aminocoumarin release from substrate by trypsin-coupled biochemical assay; in short: as §1
[5] = target: Histone deacetylase 5 (Homo sapiens, UniProt Q9UQL6); assay: Inhibition of recombinant HDAC5 assessed as inhibition of fluorogenic aminocoumarin release from substrate by trypsin-coupled biochemical assay; in short: as §1
[6] = target: T1, Protein deacetylase HDAC6 (Homo sapiens, UniProt Q9UBN7); assay: Inhibition of recombinant HDAC6 assessed as inhibition of fluorogenic aminocoumarin release from substrate by trypsin-coupled biochemical assay; in short: as §1
T1 sequence (Q9UBN7 whole entry): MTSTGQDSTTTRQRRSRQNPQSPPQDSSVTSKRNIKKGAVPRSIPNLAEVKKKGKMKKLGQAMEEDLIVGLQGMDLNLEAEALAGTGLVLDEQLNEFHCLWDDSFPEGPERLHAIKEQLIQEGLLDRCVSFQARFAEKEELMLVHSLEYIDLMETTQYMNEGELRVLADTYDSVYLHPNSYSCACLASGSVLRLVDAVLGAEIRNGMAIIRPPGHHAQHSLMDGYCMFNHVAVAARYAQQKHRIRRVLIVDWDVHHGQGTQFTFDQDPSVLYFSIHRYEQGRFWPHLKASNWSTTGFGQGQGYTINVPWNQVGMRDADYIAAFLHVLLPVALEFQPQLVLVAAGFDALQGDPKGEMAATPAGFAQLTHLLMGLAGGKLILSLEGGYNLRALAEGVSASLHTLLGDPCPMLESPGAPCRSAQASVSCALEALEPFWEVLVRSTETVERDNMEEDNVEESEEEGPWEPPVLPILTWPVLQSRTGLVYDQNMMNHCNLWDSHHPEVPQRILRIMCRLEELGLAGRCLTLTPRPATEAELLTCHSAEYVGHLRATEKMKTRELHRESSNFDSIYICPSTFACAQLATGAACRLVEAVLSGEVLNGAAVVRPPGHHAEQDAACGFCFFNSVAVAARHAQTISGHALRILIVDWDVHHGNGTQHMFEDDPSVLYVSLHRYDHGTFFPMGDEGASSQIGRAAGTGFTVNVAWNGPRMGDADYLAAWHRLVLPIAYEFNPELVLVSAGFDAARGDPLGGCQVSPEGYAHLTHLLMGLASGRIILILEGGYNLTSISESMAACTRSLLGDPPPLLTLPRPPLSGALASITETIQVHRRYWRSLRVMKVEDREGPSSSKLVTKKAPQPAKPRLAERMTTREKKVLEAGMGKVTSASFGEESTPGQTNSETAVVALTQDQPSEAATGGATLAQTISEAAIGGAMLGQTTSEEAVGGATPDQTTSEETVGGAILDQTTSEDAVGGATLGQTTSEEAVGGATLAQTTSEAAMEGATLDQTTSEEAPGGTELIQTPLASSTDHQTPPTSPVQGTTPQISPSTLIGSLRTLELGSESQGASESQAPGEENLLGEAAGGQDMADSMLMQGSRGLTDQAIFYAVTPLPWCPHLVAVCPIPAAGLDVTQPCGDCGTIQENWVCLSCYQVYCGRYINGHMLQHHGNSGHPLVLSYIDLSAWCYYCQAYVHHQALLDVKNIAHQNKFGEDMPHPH

[7] = target: T2, Histone deacetylase 7 (Homo sapiens, UniProt Q8WUI4); assay: Inhibition of recombinant HDAC7 assessed as inhibition of fluorogenic aminocoumarin release from substrate by trypsin-coupled biochemical assay
T2 sequence (Q8WUI4 whole entry): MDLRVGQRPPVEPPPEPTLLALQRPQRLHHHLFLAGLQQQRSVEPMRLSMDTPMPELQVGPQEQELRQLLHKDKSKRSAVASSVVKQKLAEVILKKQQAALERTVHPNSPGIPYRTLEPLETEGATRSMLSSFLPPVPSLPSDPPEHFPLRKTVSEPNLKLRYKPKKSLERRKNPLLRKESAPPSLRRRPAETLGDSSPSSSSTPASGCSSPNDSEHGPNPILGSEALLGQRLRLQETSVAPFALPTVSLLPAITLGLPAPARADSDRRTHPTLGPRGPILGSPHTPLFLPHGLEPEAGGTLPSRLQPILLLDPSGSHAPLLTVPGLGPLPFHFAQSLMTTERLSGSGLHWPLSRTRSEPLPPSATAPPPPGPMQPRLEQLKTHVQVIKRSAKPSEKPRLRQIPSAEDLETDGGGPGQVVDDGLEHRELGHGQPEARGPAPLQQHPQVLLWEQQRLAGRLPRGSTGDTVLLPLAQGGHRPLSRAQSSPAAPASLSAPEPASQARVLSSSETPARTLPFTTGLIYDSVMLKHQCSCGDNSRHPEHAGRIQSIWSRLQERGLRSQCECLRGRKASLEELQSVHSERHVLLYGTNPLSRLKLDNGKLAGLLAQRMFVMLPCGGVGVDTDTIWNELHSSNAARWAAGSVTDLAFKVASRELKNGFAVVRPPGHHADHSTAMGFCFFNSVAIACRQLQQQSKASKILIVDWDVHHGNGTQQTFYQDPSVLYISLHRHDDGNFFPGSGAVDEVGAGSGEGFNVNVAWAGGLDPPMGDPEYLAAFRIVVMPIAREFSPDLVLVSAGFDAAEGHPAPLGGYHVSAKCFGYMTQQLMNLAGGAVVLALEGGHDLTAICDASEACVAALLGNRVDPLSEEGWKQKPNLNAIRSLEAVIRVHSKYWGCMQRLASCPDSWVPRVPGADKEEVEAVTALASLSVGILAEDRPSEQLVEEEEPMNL

[8] = target: T3, Histone deacetylase 8 (Homo sapiens, UniProt Q9BY41); assay: Inhibition of recombinant HDAC8 assessed as inhibition of fluorogenic aminocoumarin release from substrate by trypsin-coupled biochemical assay; in short: as §1
T3 sequence (Q9BY41 whole entry): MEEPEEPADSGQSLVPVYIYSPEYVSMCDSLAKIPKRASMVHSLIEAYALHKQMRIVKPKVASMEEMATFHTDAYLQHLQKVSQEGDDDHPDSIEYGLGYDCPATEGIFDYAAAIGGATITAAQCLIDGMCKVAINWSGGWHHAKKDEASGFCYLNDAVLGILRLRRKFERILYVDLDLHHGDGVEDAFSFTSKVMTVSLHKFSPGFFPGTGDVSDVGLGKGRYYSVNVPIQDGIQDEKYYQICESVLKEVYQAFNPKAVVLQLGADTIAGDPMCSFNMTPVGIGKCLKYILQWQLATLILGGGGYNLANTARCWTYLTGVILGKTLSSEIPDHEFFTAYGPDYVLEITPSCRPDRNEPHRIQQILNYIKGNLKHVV

[9] = target: Histone deacetylase 9 (Homo sapiens, UniProt Q9UKV0); assay: Inhibition of recombinant HDAC9 assessed as inhibition of fluorogenic aminocoumarin release from substrate by trypsin-coupled biochemical assay; in short: as §1

Cc1cc(O)nc(SCC(=O)c2ccc3c(c2)NC(=O)C3)n1
pIC50 [1]: < 4.00 | pIC50 [2]: < 4.00 | pIC50 [3]: < 4.00 | pIC50 [4]: < 4.00 | pIC50 [5]: < 4.00 | pIC50 [6]: 4.49 | pIC50 [7]: < 4.00 | pIC50 [8]: < 4.00 | pIC50 [9]: < 4.00
